In patent US20100061996:

Molecular target: Lys-plasminogen (UniProt P00747)

uPA (urokinase-type plasminogen activator), high molecular weight two-chain form
initial rate of plasmin generation by uPAHepsin (plasminogen activation assay): 29.3±5.0 nM plasmin min^-1 | initial rate of plasmin generation by uPAPlasmin (plasminogen activation assay): 26.4±4.5 nM plasmin min^-1
